## Antibody variant affinities, Ab-14 heavy chain, assay B

Data: MIT Lincoln Laboratory AlphaSeq set, Li et al. 2023, doi:10.1038/s41467-023-39022-2, as distributed in FLAb.

Binding partner: SARS-CoV-2 spike HR2 peptide, sequence PDVDLGDISGINAS.

Parent: Ab-14, a human scFv built as VH, a (GGGGS)3 linker, VL. Only the CDRs of the heavy chain vary.
VH: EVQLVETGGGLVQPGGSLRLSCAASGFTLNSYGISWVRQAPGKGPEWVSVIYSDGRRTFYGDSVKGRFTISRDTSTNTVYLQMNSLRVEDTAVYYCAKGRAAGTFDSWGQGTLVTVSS
VL: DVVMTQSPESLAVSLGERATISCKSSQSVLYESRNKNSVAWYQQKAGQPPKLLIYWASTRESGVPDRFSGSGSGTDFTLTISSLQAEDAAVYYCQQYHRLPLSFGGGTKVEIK

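The parent was found by panning a naive human phage display library on the peptide. The variants were designed computationally from a first round of random CDR variants and then made and measured. Group labels follow the data file (Rand: our label for a block that the file lists under HC and that is probably the random mutants of the ten best first-round binders; En: ensemble of fine-tuned language models; HC: hill climbing; Gen: genetic algorithm; Gibbs: Gibbs sampling; a sequence that several methods proposed may carry one label only). The assay is AlphaSeq: two haploid yeast populations carry antibody and antigen on their surface. After mating in shaken culture at 30 °C for 16 h, diploids were selected and their barcode pairs sequenced. Scores were corrected for input abundance and mapped to Kd with protein pairs of known affinity run in the same pool. Mating was done six times.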

The parent's heavy chain CDRs are GFTLNSYGIS, VIYSDGRRTFYGDSVK, GRAAGTFDS; each variant's own CDRs replace them letter for letter. This list holds designs with more than six substitutions. Scale: log10 of Kd in nM, estimated from mating counts; low values are strong binders. A pair that was not seen in that replicate is written "ND"; this usually means weak binding, but a binder can also be missed.

For GFDLNEYGIS | VIYADGMRKVYADSVK | GNNAGTFDI [En_Gen], the assay gave -0.38, -0.24, -0.72, -0.47, -0.55, -0.32.
For GFDLEEYGIS | VIYADGSRTSYQESVK | GLYIGMLDM [En_Gibbs], the assay gave ND, ND, ND, ND, ND, ND.
For GFDLNEYGIS | VIYADGMRTAYADSVK | GETAGTFDA [En_Gen], the assay gave 0.67, ND, 0.40, 0.03, 0.32, -0.49.
For GFDLNEYGIS | VIYADGMRTAYQDSVK | GQNAGTFDV [En_Gen], the assay gave -0.32, -0.25, -0.42, -0.35, -0.05, -0.12.
For EFDLQEYGIS | VIYADGKREAYKDNFK | GNGGGVFDA [En_Gibbs], the assay gave ND, ND, ND, ND, ND, ND.
For GFDLNEYGIS | VIYADGMRTYYADSVK | GGNAGTFDV [En_Gen], the assay gave -0.42, -0.28, -0.24, -0.18, -0.29, -0.12.
For GFDLNEYGIS | VIYADGVRTAYADDVK | GQNAGTFDT [En_Gen], the assay gave -0.79, -0.60, -0.72, -0.91, -0.43, -0.40.
For GFGLNEYGIS | VIYADGQRTSYAQSVK | DANDIIQLV [En_Gibbs], the assay gave ND, ND, ND, ND, ND, ND.
For GFNLEEYGIS | VIYADGSRSSYIEDVK | GGWNADFIV [En_Gibbs], the assay gave ND, ND, ND, ND, 1.30, ND.
For GFSLDEYGIS | VIYADGARAFYTNKVK | GVTVGDNGT [En_Gibbs], the assay gave ND, ND, ND, ND, ND, ND.
For GFDLNEYGIS | VIYADGMRTAYADKVK | GETAGTFDI [En_Gen], the assay gave -0.28, -0.32, -0.18, -0.02, -0.55, -0.20.
For GFDLNEYGIS | VIYADGRRTFYADSVK | GNTAGTFDI [En_HC], the assay gave -0.57, -0.96, -0.40, -0.86, -0.70, -0.30.
For GDSLEEYGIS | VIYADGKRDVYADSVK | GHISGWFDI [En_Gibbs], the assay gave ND, ND, ND, ND, ND, ND.
For GFDLNEYGIS | VIYADGKRTFYSDSVK | GEVAGTFVS [En_HC], the assay gave -0.11, -0.88, -0.79, -0.75, -0.80, -0.59.
For GFDLNEYGIS | VIYADGMRTAYADSVK | GNVAGTFNQ [En_Gen], the assay gave -0.16, -0.29, -0.41, -0.33, -0.52, -0.29.
For GFDLNEYGIS | VIYADGMRTYYADNVK | GEVAGTFDV [En_Gen], the assay gave ND, ND, ND, ND, ND, ND.
For GFDLKEYGIS | VIYADGVRTHYADDVK | GKHDGTNMA [En_Gibbs], the assay gave ND, ND, ND, ND, ND, ND.
For GFDLNDYGIS | VIYADGRRTAYIDSVK | GEVAGTFDE [En_HC], the assay gave 0.46, 0.10, -0.19, -0.11, -0.01, -0.29.
For GFDLNEYGIS | VIYADGRRTAYADNVK | GEVAGTFDQ [En_Gen], the assay gave -0.37, -0.76, -0.77, -1.06, -0.85, -0.93.
For GFTIDRYGAS | VIYSDGRRTFYFDSWK | GRAAGTALS [Rand], the assay gave ND, ND, ND, ND, ND, ND.
For GFSLDEMGIS | VIYADGQRTAYQDNVK | GANGVVVFV [En_Gibbs], the assay gave ND, ND, ND, ND, ND, ND.
For GFDLNEYGIS | VIYADGMRTAYTDSVK | GHNAGTFDV [En_Gen], the assay gave -0.48, -0.38, -0.80, -0.51, -0.75, -0.29.
For GFDLNEYGIS | VIYADGKRTYYADSVK | GSNAGTFDV [En_Gen], the assay gave 0.73, 0.69, 0.55, 0.08, 0.56, 0.66.
For GFDLNEYGIS | VIYADGRRTFYADSVK | GENAGTFNS [En_HC], the assay gave -0.23, -0.27, -0.53, -0.49, -0.21, -0.39.
For GFDLNEYGIS | VIYADGKRTAYADSVK | GENAGTFVV [En_Gen], the assay gave ND, ND, ND, ND, ND, ND.
For GFNLNEYGIS | VIYADGRRTFYADSVK | GQIAGTFIV [En_HC], the assay gave 0.44, 0.27, 0.85, 0.36, 0.94, 0.35.
For GFDLNEYGIS | VIYADGMRTAYADDVK | GEVAGTFDI [En_Gen], the assay gave -0.14, 0.74, -0.19, -0.39, -0.50, 0.18.
For GFDLNEYGIS | VIYADGRRTFYADSVK | GNVAGTFFQ [En_HC], the assay gave -0.37, -0.29, -0.73, -0.60, -0.78, -0.46.
For GFDLNEYGIS | VIYADGSRTAYADDVK | GNNAGTFDV [En_Gen], the assay gave -0.45, -0.98, -0.36, -0.46, -1.12, -0.02.
For GFDLNEYGIS | VIYADGMRTAYADSVK | GQVAGTFDQ [En_Gen], the assay gave -0.38, -0.23, -0.45, -0.38, -0.96, 0.04.
For GFDLNEYGIS | VIYADGQRTAYADSVK | GQNAGTFDQ [En_Gen], the assay gave ND, ND, ND, ND, ND, ND.
For GFDLNEYGIS | VIYADGRRTFYADSVK | GQTAGTFTL [En_HC], the assay gave -0.74, -0.73, -0.85, -0.85, -0.95, -0.50.
For GFDLNEYGIS | VIYADGIRTFYADSVK | GNVAGTFDV [En_HC], the assay gave -0.24, -0.48, -0.43, -0.55, -0.49, -0.52.

2 of these entries, quoted again:

With GFDLKEYGIS | VIYADGVRTHYADDVK | GKHDGTNMA [En_Gibbs] the result was ND, ND, ND, ND, ND, ND.
With GFGLNEYGIS | VIYADGQRTSYAQSVK | DANDIIQLV [En_Gibbs] the result was ND, ND, ND, ND, ND, ND.

The authors averaged sequences with at least three values out of six and counted those with two or fewer as poor binders. Values of this round are not directly comparable with the first-round values of the same sequences. Empty control strains, which show no peptide, gave a signal in 1% of pairings with all heavy chain designs; the median was 2.08 and 95% of these signals were weaker than 0.84. No background was subtracted. The parent sequence was in this pool as ten entries: three were never detected, three once, and four in most replicates, with averages from 0.34 to 2.37.